From PubChem BioAssay AID590 (National Center for Advancing Translational Sciences (NCATS), 2007)
Only a part is listed here, and it is no random draw. Some tests of the compounds listed are not included; inactive here does not mean inactive elsewhere. Results filed as inconclusive are left out. Calls of active or inactive are those of the source. Rule as the data show it: active = max dye-equivalent concentration above about 10 nM; inconclusive = mostly about 1.1 nM to 9.6 nM; inactive = weaker than that.

Assay: qHTS Assay for Spectroscopic Profiling in A350 Spectral Region
Conditions: Compound autofluorescence, 340/450 nm, Alexa 350 dye-equivalents
Source text: NIH Molecular Libraries Screening Centers Network [MLSCN]
NIH Chemical Genomics Center [NCGC]
Occasionally, the artifactual effect may originate from the compounds own spectral or other biophysical properties which generally tend to track its assay concentration. Pre-screening/profiling the library with respect to the compounds spectral properties should help one exclude false positives early on. While the most informative fluorescent profiling data set is obtained by performing a full excitation and emission scan of each well by using a monochromator-based plate reader, such an approach is practical only on a very limited scale as scanning each well requires long time. An alternative approach, applied here, is to perform plate reader scans using selected excitation and emission wavelength pairs to generate a multidimensional relational database that correlates compound concentration and the respective relative fluorescence intensity at a given wavelength set. A standard curve of Alexa 350 (A 350) present on each plate as six-point concentration series, was used to compute a normalized fluorescence response, termed dye-equivalent concentration, for each compound at each concentration.
NCGC Assay Protocol Summary:
100 mM Tris buffer, pH 8.0
The wells in columns 1 through 4 of a Kalypsys polypropylene 1536-well compound plate were filled with standard solutions of fluorophore corresponding to the spectral region of interest. Solutions of A 350 were placed in the following wells: I1, J1: 3 mM, I2, J2: 300 uM, I3, J3: 30 uM, I4, J4: zero (DMSO), K1, L1: 3 uM, K2, L2: […], K3, L3: 300 nM, K4, L4: zero (DMSO).
Six uL of buffer were dispensed to 1536-well Greiner black plates. Compounds and dye standards (23 nL) were transferred via Kalypsys PinTool. The plates were incubated for 15 min at room temperature, and then read on ViewLux (Perkin-Elmer) High-throughput CCD imager using 340 nm and 450 nm excitation and emission filter set.
Keywords: NIH Roadmap, MLSCN, MLI, MLSMR, qHTS, NCGC, A350, A-350, Fluorescent Profiling.
In the case of `CN1CCC[C@H](OC(=O)[C@](O)(c2ccccc2)C2CCCC2)C1`, the outcome is reported as “inactive”. In the case of `O=C(OC1CN2CCC1CC2)C(CO)(c1ccccc1)c1ccccc1` (centres undefined), the outcome is reported as “inactive”. In the case of `CN1CC[C@H](OC(=O)[C@](O)(c2ccccc2)C2CCCC2)C1`, the outcome is reported as “inactive”. With `C=C(C)C#C[C@@](O)(C(=O)OC1CCN(C)CC1)c1ccccc1` the outcome was “inactive”.
